Earlier results on two substances are cited in patent EP3783012A1, “AN ANTIMICROBIAL PEPTIDE” (priority 2019, dated 2021).

What is called half-life is the time in which the quantity being followed falls by half. By fraction unbound is commonly meant the share of the substance not bound to proteins or other matrix.

For data set [1] the following is noted: cited from earlier work.
Another data set relates to lipoproteins. The following applies: binding to lipoproteins; cited from earlier work.
The conditions of data set [2]: in vivo; cited from earlier work.

Where two headings read alike, the source gives them in different places.

As for desmopressin, the half-life in data set [1] (healthy human volunteers) is on record as 3.7 h.
Take octreotide: the fraction unbound in the data set with lipoproteins is given as 0.65. In addition, the “plasma half life time” value in data set [2] is 1.5 h. Moreover, the half-life result in data set [1] (in humans) is on record as “about 100 min”.
